In paper PMC5317049, “Ex vivo^18O-labeling mass spectrometry identifies a peripheral amyloid β clearance pathway” (Molecular Neurodegeneration, 2017):

Assays:
[1] = system: Aβ; details: than solanezumab; cited from earlier work
Text: The pathophysiological relevance of the observations needs to be determined in future studies.

[2] = biological target: T1, Aβ1-40 (Homo sapiens, UniProt P05067); assay: Effect of antibodies on Aβ degradation in 5% serum; format: biochemical; details: 4 μg recombinant antibody in 1 ml PBS with 0.016 μM labeled Aβ1-40, 1 h pre-incubation, then 5% serum overnight, room temperature; IP-MALDI MS
T1 construct: To 1 ml PBS containing isotopic labeled Aβ1-40 (0.016 μM) 4 μg of each of the recombinant antibodies; purchased Anaspec, Inc
Description: To 1 ml PBS containing isotopic labeled Aβ1-40 (0.016 μM) 4 μg of each of the recombinant antibodies solanezumab, bapineuzumab and crenezumab were added, followed by incubation for 1 h at room temperature. The antibodies were expressed and purified as previously described. Each sample was spiked with serum (5%, end concentration) followed by incubation overnight at room temperature. The samples were placed in a 100 °C heating block for five minutes to disrupt potential antibody/Aβ complexes, and subsequently centrifuged for 10 min at 4 °C (31.000 x g). The supernatants were transferred to new tubes and Aβ peptides were immunoprecipitated and analyzed by mass spectrometry as described above.

## bapineuzumab: recombinant anti-Aβ antibody bapineuzumab
[1]
  affinity for Aβ compared with solanezumab: much lower affinity
[2]
  effect on proteolytic degradation of Aβ1-40 in serum: did not block the degradation
